Assay results as given in patent US20150139979A1, “METHODS OF TREATING A DISEASE OR DISORDER ASSOCIATED WITH BRUTON'S TYROSINE KINASE” (Celgene Avilomics Research, Inc., priority 2013, published 2015).

The chains behind the UniProt entries cited, without tags or fusion partners. Where a name states a change or a piece, a line headed by the entry shows the natural chain unless it says otherwise.
UniProt Q06187: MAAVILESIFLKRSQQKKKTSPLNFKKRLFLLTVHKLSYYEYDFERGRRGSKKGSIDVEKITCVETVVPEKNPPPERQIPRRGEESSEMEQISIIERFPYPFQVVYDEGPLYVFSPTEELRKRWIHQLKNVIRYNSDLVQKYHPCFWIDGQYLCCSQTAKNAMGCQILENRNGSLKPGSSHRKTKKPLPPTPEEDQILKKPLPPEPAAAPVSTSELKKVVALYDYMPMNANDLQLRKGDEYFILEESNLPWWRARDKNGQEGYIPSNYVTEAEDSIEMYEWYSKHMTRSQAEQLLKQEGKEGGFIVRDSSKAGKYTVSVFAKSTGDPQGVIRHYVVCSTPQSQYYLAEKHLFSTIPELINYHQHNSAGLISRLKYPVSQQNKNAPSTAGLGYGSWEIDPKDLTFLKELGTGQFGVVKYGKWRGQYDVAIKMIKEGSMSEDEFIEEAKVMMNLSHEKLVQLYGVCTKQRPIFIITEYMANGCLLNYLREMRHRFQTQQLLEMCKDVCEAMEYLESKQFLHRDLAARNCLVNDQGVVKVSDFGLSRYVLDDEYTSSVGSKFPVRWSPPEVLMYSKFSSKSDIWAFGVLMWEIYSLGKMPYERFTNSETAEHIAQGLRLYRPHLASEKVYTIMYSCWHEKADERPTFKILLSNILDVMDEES

Experiments:
[1] = target: T1, BTK (Homo sapiens, UniProt Q06187); assay: Btk inhibition; format: biochemical; design: purchased Reaction Biology Corp
[2] = target: T1, BTK; assay: Inhibition of BTK and PLCγ2 phosphorylation in Ramos cells; format: cell-based; conditions: read-out: EC50, inhibition of phosphorylation of the auto-phosphorylation site on BTK (Tyr223)

SMILES | IC50 [1] [nM] | EC50 [2] [nM]
C=CC(=O)Nc1cccc(Nc2nc(Nc3ccc(OCCOC)cc3)ncc2F)c1.O=S(=O)(O)c1ccccc1 [Compound 1 besylate, N-(3-(5-fluoro-2-(4-(2-methoxyethoxyl)phenylamino)pyrimidin-4-ylamino)phenyl)acrylamide besylate] | < 0.5 | –
C=CC(=O)Nc1cccc(Nc2nc(Nc3ccc(OCCOC)cc3)ncc2F)c1 [Compound 1, N-(3-(5-fluoro-2-(4-(2-methoxyethoxyl)phenylamino)pyrimidin-4-ylamino)phenyl)acrylamide] | – | 1 to 10
